Our source for the Kd values is publication PMC10323247.

The target in the assay is recombinant human augmin complex (GFP-augmin), all eight full-length subunits HAUS1-HAUS8 (human) (UniProt Q96CS2). In words: MST; twofold dilution series of importins α/β (4.3 μM-0.131 nM final) mixed with an equal amount of 10 nM mGFP-augmin; BRB80, 1 mM TCEP, 0.02 mg/ml κ-casein, 3 mM ATP, 2 mM GTP; 5 min at room temperature; Monolith NT.115.

“human importin α (KPNA2 subunit) and importin β (KPNB1 subunit), together importin α/β (from UniProt P52292 1-529; Q14974 1-876) (complex; other documents disagree on this pair)”: the dissociation constant Kd was 0.0131 µM.

The term Kd denotes the free concentration of one partner at which half of the binding sites on the other are occupied at equilibrium, for simple one-to-one binding.
